# scFv variants of Ab-91 (heavy chain) against a SARS-CoV-2 spike peptide

Reference: Engelhart et al. 2022, doi:10.1038/s41597-022-01779-4. File: FLAb, binding data.

The target is the same throughout: PDVDLGDISGINAS, from the HR2 region of SARS-CoV-2 spike.

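The parent was found by panning a naive human phage display library on the peptide. Variants in AAYL51 differ from the parent at up to three CDR positions; double and triple changes were sampled at random. Affinity was read by AlphaSeq, a pooled yeast mating assay with surface-displayed partners. The frequency of each diploid, read from paired DNA barcodes, reflects how well the two displayed proteins bind. Read counts were normalised to the haploid input and turned into Kd by a linear fit to BCL2-family pairs of known affinity, for each replicate. There are three technical replicates.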

Parent: Ab-91, a human scFv built as VL, three GGGGS repeats, VH. Only the CDRs of the heavy chain vary.
VL: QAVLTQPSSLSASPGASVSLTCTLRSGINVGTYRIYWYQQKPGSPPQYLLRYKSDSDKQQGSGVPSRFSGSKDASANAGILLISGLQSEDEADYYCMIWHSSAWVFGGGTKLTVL
VH: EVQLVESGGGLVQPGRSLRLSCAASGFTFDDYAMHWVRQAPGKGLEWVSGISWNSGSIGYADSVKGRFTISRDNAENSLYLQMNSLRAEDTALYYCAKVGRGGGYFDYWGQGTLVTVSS

Variants are written as CDR1, CDR2 and CDR3 of the heavy chain (limits as in the source). Parent: GFTFDDYAMH, GISWNSGSIGYADSVK, VGRGGGYFDY. This list gathers variants with a substitution at I58 (VH, numbered from residue 1). Kd is apparent (estimated from mating counts) and averaged on the log scale over replicates with a signal. Smaller is tighter. A pair that was not seen in any replicate is written "nd"; this usually means weak binding, but a binder can also be missed. For reference, the parent read 72 nM as the reference entry and 7.5 nM as a member of this library.

Variant GFTFTDYAMH / GISWNSGSGGYADSVK / IGRGGGYFDY gave 860 nM (3 of 3 replicates). Variant GFFFDDYAMH / GISWNSGSMGYEDSVK / VGRGGGYFDY showed 390 nM (3 of 3 replicates). Variant GFTFDDYAMH / GISWNSGSKGYADSVK / VGRGGGYFDY showed 21 nM (3 of 3 replicates). For GFTFDDYAMH / GWAWNSGSRGYADSVK / VGRGGGYFDY, the assay gave 180 µM (2 of 3 replicates). Variant GFTFDPYAMH / GISWNSGSKGYADSVK / VGIGGGYFDY gave nd (0 of 3 replicates). Variant GFTFDRYAMH / GISWNSGSEGYADIVK / VGRGGGYFDY gave 1.7 nM (3 of 3 replicates). For GFAFDDYAMH / GISWNSGSFGYADSVK / VGRGGGYFHY, the assay gave nd (0 of 3 replicates). With GFTFDDYAMH / GISMNWGSMGYADSVK / VGRGGGYFDY the result was 14 µM (3 of 3 replicates).

For GFTFDDYAMH / GIAWNSGSWGYADSVK / VYRGGGYFDY, the assay gave 380 µM (3 of 3 replicates). Variant GFTFDDYAMH / GISWNSGSQGKADSVK / VGRGGGYCDY showed nd (0 of 3 replicates). With GMTFDDYAMH / GISWNSGSHGYADSVK / NGRGGGYFDY the result was nd (0 of 3 replicates). For GFTFDDYAMH / GISWNSGPHGYADSAK / VGRGGGYFDY, the assay gave nd (0 of 3 replicates). Variant GFTFDDYVMH / GISWNSGSSGYADSVK / VGRGGGYCDY showed 200 µM (1 of 3 replicates). Variant GFTFDDYAMH / GISWNSGSVMYADSVN / VGRGGGYFDY gave 340 µM (2 of 3 replicates). Variant GFFFDDYAMH / GISWNSGSKGYADSVK / VGRGGGYFDY gave 30 nM (3 of 3 replicates). Variant GFTFDDYAMH / GRSWNSGSYGYADSVK / VPRGGGYFDY showed 18 µM (2 of 3 replicates).

Variant GFTFDDYAMH / GISWNSGSPGYADSVW / VGRCGGYFDY gave 4.5 µM (1 of 3 replicates). Variant GFYFDDYAMH / GISWNSGSWGYADSVK / VGRKGGYFDY gave 9.4 µM (1 of 3 replicates). For GFTFDDYARH / GISWNSGSRGYADSVK / VGRGGDYFDY, the assay gave nd (0 of 3 replicates). With GETFDDYEMH / GISWNSGSTGYADSVK / VGRGGGYFDY the result was 410 µM (3 of 3 replicates). For GFTFDDYAMH / GISWNSGSPGYAHSVK / VGRGGMYFDY, the assay gave 100 µM (2 of 3 replicates). With GFTFDDYAMH / GISWNKGSCGTADSVK / VGRGGGYFDY the result was 95 µM (1 of 3 replicates). With GFTFDDYSMH / GIYWNSGSEGYADSVK / VGRGGGYFDY the result was 910 µM (2 of 3 replicates). With WFTFDDYAMH / GISWNSGSMMYADSVK / VGRGGGYFDY the result was nd (0 of 3 replicates).

For GFTFADYAMH / GISWNSGSMGYADSVK / NGRGGGYFDY, the assay gave nd (0 of 3 replicates). For GFTFDDYAMH / GISWNSGSMGYAFSVK / VGRGGGYFDY, the assay gave nd (0 of 3 replicates). For GFTFDDYAMH / GISWMSGSLGYADSVK / VGRGGGYFDY, the assay gave 11 µM (2 of 3 replicates). Variant GFTFDDYAMC / GISWNSGSDGYADSVK / VGRGYGYFDY showed 80 µM (1 of 3 replicates). Variant GFTFDDYAMH / GISWNSGSHGKADSVK / VPRGGGYFDY gave 170 µM (2 of 3 replicates). For GPTFDDYAMH / GISWNSGSWVYADSVK / VGRGGGYFDY, the assay gave 2.4 µM (1 of 3 replicates). For GFTFDDYAML / GISWNSGSAGYADSVK / VGRGGGYFDY, the assay gave 18 µM (2 of 3 replicates). With GFTFDDYAMK / GISWNSGSWGYADSVK / VGRGNGYFDY the result was 26 µM (1 of 3 replicates).

With GFTFDDYAMH / GISWNSWSGGYADSVK / VGRGGGYFDP the result was nd (0 of 3 replicates). With GFTFDDYAMH / GISWNSGQAGYADSVM / VGRGGGYFDY the result was 2.3 nM (3 of 3 replicates). With GFTFDDYAMH / GISWNSGSYGYADRVK / VGRGGGMFDY the result was nd (0 of 3 replicates). Variant GFTFDDYAMH / GISWNSGSQGYAYSVW / VGRGGGYFDY gave nd (0 of 3 replicates). Variant GFTFDDYAMH / GHSWNSGSQGYADSVK / EGRGGGYFDY gave 1.8 µM (1 of 3 replicates). For GFTFDDYAHH / GISWNSGSGGYADSVK / VGRGMGYFDY, the assay gave 290 µM (1 of 3 replicates). With GFTFDDYAMA / GNSWNSGSSGYADSVK / VGRGGGYFDY the result was nd (0 of 3 replicates). With GFYFDDYAEH / GISWNSGSEGYADSVK / VGRGGGYFDY the result was nd (0 of 3 replicates).

Variant EFTFDDYAMH / GISWNSGSVGYADSVK / VGRMGGYFDY showed 59 µM (1 of 3 replicates). With GFTFDDYAMH / GISWNSGSSGYAEGVK / VGRGGGYFDY the result was 900 nM (3 of 3 replicates).

A selection of 2 entries from above:

{"CDR-H1": "GFTFDDYAMA", "CDR-H2": "GNSWNSGSSGYADSVK", "CDR-H3": "VGRGGGYFDY", "Kd": "nd", "detected": "0/3"}
{"CDR-H1": "GFTFDDYAMH", "CDR-H2": "GIAWNSGSWGYADSVK", "CDR-H3": "VYRGGGYFDY", "Kd": "380 µM", "detected": "3/3"}

Nonspecific signal, from three strains lacking the peptide, appeared in 21% of pairings of library AAYL51, centred on 34 µM (5% of these signals below 1.8 µM); values are not corrected for it.